# Experimental data reported in article PMC8347464, “Design, Synthesis, and In Vitro Antiproliferative Activity of Hydantoin and Purine Derivatives with the 4-Acetylphenylpiperazinylalkyl Moiety” (Materials, 2021).
# Protein sequences, listed by entry. Tags and fused reporters are not part of them. Lines headed by an entry give the natural chain unless they say otherwise; changes in a name come on top.
# UniProt P07650: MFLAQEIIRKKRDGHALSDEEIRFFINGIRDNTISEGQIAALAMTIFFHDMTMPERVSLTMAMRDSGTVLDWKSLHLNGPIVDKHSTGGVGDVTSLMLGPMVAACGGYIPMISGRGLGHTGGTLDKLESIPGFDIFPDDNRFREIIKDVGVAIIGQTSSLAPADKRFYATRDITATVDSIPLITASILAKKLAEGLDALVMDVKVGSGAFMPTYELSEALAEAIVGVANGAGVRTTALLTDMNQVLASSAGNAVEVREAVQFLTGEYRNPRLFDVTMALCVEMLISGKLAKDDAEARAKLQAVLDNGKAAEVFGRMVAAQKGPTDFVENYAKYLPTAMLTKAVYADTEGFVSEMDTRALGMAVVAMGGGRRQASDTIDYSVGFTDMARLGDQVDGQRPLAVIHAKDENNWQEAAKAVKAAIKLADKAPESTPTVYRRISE
# Target: T1, E. coli TP (thymidine phosphorylase, TP/PD-ECGF) (Escherichia coli, UniProt P07650)
# T1 construct: purchased Sigma T6632
# Test: Thymidine phosphorylase inhibition
# Format: biochemical
# Settings: 100 µM screening concentration
# Procedure: TP/PD-ECGF (E. coli TP (Sigma T6632)) activity was determined by measuring the absorbance at 290 nm spectrophotometrically, according to the manufacturer′s procedure. Briefly the reaction mixture of 145 µL of potassium phosphate buffer (pH 7.4), 20 µL of 1.5 mM Thymidine 50 monophosphate solution as substrate, and 30 µL of an enzyme (E. coli TP, 0.05 and 0.002 U) was incubated with 5 µL of test materials for 10 min at 25 °C in a 96-well, flat bottom microplate (200 µL). Readings were taking by a microplate reader (SpectraMax Plus384, USA) at 290 nm. The readings were taken continuously after 10, 20, and 30 min by a microplate reader. All assays were performed in triplicate.
substance,measurement,value
"7-Deazaxanthine [Compound 7-DX, reference compound]",inhibition of thymidine phosphorylase activity,54.55%
